{"sequences": {"note": "By UniProt entry, the sequences of proteins in these tests, tags left out.", "UniProt P01106, whole entry": "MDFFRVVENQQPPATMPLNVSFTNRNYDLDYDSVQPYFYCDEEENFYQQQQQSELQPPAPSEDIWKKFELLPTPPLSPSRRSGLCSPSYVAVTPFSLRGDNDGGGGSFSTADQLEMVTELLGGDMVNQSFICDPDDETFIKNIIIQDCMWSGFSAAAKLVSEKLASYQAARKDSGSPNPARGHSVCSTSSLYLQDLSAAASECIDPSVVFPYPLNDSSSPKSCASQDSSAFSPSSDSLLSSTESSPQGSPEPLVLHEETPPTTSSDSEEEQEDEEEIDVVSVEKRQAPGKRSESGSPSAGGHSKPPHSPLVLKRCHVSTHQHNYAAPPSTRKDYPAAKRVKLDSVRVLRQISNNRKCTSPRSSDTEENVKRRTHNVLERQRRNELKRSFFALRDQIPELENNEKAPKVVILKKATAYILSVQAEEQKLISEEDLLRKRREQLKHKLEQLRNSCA"}, "source": "patent US11753418B2", "about": "“Compounds for the modulation of Myc activity” (Syros Pharmaceuticals, Inc., priority 2015, dated 2023)", "molecular_target": "c-Myc/Max/Ebox DNA (Homo sapiens, UniProt P01106)", "assay": "c-Myc/Max/Ebox DNA AlphaScreen Assay", "settings": "read-out: Myc/Max/DNA Activity, free c-Myc 20 nM, his6-Max 5 nM, biotinylated Ebox oligo 10 nM, 2 hour incubation"}
{"smiles": "O=C(CCN1CC2CCC(C1)N2)Nc1sc2c(c1-c1nc3cnccc3s1)CCNC2", "values": [{"measurement": "IC50", "value": "500 to 5000", "unit": "nM"}]}
